Laboratory results published in PMC7279473 (International Journal of Molecular Sciences, 2020).

Protein sequences, listed by entry. Tags and fused reporters are not part of them.
UniProt Q59263, whole entry F128K: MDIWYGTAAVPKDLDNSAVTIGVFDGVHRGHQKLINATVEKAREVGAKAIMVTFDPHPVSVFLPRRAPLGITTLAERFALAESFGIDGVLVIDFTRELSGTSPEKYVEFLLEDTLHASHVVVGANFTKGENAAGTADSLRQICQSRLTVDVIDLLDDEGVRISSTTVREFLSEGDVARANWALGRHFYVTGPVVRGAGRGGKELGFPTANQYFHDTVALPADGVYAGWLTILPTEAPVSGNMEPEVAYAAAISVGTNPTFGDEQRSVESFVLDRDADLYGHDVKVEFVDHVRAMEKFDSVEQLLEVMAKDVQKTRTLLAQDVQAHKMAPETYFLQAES
UniProt Q59263, whole entry F128W: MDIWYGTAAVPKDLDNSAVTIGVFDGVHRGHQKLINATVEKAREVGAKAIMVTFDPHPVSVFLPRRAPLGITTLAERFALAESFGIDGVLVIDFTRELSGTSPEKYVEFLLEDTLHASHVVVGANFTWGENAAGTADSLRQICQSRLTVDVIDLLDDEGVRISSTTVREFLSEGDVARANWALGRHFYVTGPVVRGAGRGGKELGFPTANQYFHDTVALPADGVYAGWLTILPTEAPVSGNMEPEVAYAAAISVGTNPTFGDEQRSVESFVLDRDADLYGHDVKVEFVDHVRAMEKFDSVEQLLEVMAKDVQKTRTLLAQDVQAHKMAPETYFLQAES

Columns and labels:
CaFADS [1] = target: T1, CaFADS (Corynebacterium ammoniagenes, UniProt Q59263, F128K); experiment: biochemical
T1 construct: gene ribF

CaFADS [2] = target: T2, CaFADS (Corynebacterium ammoniagenes, UniProt Q59263, F128W); experiment: biochemical
T2 construct: gene ribF

Kd (CaFADS [1]): 14 ± 1 µM
Kd (CaFADS [2]): 19 ± 1 µM
Structure (SMILES): Nc1ncnc2c1ncn2[C@@H]1O[C@H](COP(=O)(O)OP(=O)(O)OP(=O)(O)O)[C@@H](O)[C@H]1O [ATP]
